Results: article PMC4312721 (Biochimica et biophysica acta, 2014)

Sequences of proteins named here, by UniProt entry; tags and fusion partners are left off.
UniProt O14939, whole entry, species assumed: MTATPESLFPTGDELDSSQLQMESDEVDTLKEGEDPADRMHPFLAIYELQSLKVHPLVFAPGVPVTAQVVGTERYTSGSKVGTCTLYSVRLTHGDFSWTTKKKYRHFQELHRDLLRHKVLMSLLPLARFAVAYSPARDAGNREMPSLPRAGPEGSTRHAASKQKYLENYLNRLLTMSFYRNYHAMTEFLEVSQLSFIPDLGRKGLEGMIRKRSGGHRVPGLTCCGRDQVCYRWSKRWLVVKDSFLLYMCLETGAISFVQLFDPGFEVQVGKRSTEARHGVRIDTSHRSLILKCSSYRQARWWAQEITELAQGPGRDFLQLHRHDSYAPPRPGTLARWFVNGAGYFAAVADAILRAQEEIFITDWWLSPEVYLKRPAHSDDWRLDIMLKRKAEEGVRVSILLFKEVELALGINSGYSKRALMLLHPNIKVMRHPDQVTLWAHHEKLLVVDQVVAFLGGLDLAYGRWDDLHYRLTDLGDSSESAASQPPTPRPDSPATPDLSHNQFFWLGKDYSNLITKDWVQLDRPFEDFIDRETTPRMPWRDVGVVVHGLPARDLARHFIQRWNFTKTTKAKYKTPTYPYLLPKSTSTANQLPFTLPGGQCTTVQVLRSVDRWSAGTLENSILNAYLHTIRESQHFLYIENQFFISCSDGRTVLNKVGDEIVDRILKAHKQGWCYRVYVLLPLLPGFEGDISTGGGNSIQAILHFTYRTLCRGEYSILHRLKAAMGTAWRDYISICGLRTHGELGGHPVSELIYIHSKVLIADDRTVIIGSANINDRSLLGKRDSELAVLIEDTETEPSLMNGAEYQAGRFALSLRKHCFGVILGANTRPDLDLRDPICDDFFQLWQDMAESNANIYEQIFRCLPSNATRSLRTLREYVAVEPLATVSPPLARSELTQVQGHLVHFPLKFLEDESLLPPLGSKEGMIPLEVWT

Experiments:
[1] = molecular target: T1, PLD2 (Homo sapiens, UniProt O14939); assay: Phospholipase; format: biochemical; conditions: read-out: EC50, inhibition of PLD2; lysates
[2] = molecular target: T1, PLD2; assay: Phospholipase activity assay, intact; format: cell-based; conditions: read-out: EC50, inhibition of PLD2; whole cells

With `O=C(NCCN1CCC2(CC1)C(=O)NCN2c1cccc(F)c1)c1ccc2ccccc2c1` [NFOT, N-[2-[1-(3-Fluorophenyl)-4-oxo-1,3,-8-triazaspiro[4,5]dec-8-yl]ethyl]-2-naphthalenecarboxamide] the EC50 [1] was ~10 nM and the EC50 [2] was ~10 nM.
